Sequences of proteins named here, by UniProt entry; tags and fusion partners are left off.
UniProt Q13422, whole entry: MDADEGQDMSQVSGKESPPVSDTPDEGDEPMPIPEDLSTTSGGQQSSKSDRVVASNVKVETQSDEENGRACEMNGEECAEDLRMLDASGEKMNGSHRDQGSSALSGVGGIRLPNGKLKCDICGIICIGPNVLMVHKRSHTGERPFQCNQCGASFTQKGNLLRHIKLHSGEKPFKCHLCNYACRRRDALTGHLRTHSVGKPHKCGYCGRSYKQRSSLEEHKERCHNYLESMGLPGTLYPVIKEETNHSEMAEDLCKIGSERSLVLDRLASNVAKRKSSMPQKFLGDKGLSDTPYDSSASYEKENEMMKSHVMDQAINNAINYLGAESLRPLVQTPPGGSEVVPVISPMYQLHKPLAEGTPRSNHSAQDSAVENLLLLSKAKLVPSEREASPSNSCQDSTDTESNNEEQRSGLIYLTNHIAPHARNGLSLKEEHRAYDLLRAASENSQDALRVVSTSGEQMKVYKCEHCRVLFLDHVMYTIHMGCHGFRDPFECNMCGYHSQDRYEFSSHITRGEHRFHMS
UniProt Q96SW2, whole entry: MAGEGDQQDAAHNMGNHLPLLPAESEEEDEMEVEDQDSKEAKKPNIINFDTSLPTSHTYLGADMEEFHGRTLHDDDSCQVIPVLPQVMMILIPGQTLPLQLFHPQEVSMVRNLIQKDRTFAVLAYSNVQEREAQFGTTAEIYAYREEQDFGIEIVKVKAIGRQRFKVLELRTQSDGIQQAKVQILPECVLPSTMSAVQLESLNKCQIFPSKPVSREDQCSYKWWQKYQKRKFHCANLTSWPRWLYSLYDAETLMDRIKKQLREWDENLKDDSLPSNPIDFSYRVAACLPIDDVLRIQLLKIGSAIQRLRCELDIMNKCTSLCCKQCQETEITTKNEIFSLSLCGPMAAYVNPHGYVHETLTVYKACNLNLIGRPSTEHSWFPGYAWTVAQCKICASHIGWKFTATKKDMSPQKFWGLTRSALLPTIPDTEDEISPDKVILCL
UniProt Q9UKS7, whole entry: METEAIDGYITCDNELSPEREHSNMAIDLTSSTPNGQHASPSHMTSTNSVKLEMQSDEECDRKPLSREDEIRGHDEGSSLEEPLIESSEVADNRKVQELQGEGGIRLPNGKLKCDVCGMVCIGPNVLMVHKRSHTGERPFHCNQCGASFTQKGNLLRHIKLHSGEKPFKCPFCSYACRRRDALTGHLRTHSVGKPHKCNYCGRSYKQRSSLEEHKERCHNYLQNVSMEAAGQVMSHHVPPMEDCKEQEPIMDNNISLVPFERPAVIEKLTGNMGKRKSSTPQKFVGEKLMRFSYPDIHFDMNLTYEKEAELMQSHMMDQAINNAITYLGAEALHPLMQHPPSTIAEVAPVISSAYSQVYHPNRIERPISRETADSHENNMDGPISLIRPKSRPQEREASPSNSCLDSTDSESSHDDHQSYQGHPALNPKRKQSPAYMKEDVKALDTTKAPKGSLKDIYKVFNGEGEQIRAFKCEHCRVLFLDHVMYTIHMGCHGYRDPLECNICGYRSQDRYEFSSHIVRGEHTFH
UniProt P48729, whole entry: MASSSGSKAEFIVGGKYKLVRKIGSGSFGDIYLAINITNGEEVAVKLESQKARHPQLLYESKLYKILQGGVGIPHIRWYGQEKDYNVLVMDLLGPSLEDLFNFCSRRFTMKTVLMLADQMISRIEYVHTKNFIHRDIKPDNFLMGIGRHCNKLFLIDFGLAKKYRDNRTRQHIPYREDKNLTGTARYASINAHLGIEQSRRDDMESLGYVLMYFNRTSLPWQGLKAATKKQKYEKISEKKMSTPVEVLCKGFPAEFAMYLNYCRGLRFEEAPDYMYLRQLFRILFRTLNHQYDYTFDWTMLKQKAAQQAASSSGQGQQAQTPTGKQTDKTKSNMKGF
UniProt P30291, whole entry: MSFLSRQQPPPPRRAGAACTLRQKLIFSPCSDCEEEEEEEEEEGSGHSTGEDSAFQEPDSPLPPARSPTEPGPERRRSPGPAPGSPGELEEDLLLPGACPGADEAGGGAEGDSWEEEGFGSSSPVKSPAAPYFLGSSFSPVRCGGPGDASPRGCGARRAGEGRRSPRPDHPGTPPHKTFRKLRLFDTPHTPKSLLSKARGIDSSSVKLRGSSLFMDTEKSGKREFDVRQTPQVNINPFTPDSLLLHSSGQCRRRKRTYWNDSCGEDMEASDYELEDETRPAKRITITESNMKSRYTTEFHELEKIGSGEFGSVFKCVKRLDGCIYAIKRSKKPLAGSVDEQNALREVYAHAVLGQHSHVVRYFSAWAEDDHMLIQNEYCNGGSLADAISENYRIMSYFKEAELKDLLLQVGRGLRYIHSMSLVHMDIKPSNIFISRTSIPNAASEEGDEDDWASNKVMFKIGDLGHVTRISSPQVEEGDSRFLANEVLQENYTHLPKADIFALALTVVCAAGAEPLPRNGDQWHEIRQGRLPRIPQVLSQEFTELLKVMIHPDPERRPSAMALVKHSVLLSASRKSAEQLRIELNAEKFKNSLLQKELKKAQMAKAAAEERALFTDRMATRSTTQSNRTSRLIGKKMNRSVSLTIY
UniProt Q9UKT9, whole entry: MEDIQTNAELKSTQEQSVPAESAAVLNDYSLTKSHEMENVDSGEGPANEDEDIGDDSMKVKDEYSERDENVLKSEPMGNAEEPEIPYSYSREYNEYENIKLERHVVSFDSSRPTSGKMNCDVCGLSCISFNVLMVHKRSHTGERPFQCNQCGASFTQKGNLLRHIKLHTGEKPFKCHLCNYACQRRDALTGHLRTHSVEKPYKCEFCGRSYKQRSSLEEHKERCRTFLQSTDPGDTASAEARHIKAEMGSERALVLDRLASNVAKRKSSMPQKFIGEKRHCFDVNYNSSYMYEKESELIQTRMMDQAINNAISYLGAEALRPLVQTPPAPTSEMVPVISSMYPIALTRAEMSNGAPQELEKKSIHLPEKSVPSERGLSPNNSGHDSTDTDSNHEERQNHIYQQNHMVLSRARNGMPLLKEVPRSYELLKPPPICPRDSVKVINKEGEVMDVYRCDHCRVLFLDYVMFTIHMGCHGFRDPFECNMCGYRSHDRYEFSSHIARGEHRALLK
UniProt P15170, whole entry: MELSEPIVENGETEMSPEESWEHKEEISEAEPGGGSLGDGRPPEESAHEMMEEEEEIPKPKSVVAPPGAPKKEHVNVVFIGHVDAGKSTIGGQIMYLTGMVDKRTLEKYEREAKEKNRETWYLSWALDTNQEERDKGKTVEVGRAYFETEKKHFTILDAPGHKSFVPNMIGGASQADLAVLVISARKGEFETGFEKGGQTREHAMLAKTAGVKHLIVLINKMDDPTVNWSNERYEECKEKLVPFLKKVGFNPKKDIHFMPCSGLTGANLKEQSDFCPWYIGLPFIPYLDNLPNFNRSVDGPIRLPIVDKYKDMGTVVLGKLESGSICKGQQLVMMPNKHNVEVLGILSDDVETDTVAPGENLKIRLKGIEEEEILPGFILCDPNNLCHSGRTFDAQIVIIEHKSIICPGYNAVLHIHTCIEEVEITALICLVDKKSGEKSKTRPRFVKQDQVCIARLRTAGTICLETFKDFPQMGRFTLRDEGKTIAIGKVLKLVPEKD
UniProt Q16531, whole entry partner: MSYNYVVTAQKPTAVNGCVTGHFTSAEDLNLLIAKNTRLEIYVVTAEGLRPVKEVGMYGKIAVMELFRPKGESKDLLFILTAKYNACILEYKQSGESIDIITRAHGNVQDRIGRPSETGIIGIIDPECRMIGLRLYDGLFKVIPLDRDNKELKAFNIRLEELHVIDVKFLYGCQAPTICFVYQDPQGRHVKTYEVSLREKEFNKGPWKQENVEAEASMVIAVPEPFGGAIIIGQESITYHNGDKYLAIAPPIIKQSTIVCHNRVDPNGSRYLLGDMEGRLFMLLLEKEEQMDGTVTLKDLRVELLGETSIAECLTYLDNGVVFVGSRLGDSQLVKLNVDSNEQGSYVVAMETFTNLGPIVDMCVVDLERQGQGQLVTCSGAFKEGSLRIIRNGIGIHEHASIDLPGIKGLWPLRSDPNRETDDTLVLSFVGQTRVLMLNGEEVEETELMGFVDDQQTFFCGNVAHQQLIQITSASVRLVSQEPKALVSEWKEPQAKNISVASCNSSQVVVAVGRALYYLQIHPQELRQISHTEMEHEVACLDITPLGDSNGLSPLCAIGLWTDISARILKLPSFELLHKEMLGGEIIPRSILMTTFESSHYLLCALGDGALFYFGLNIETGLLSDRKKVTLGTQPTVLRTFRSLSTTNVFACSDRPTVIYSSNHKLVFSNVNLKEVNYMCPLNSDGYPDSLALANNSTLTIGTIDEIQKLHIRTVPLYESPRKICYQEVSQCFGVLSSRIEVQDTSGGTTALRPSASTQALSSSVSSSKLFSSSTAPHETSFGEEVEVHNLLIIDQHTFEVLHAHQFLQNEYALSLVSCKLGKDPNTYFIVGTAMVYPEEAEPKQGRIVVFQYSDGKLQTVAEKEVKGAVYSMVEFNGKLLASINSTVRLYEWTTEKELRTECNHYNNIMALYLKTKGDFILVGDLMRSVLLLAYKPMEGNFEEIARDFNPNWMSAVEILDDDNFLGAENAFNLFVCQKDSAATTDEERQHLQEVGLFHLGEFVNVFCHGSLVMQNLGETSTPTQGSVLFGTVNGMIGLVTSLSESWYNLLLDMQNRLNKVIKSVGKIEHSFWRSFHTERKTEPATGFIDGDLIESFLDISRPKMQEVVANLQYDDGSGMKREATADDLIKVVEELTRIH

In patent publication EP4834897A1, “COMPOUNDS WITH TWO AZAHETEROCYCLES SUBSTITUTED ISOINDOLINONE SKELETON AND USES THEREOF” (dated 2026):

What was measured:
Test in all cases: Western blot assay of substrate protein degradation in hPBMCs
Conditions in all cases: 24 hours treatment, compounds at 50 nM and 500 nM (concentration behind the class not stated)
IKZF1 = IKZF1 (Homo sapiens, UniProt Q13422+Q96SW2)
IKZF2 = IKZF2 (Homo sapiens, UniProt Q96SW2+Q9UKS7)
CK1α = CK1α (Homo sapiens, UniProt P48729+Q96SW2)
WEE1 = WEE1 (Homo sapiens, UniProt P30291+Q96SW2)
IKZF3 = IKZF3 (Homo sapiens, UniProt Q96SW2+Q9UKT9)
GSPT1 = GSPT1 (Homo sapiens, UniProt P15170+Q96SW2)

Compound	substrate protein remaining % (IKZF 1) (IKZF1)	substrate protein remaining % (IKZF2) (IKZF2)	substrate protein remaining % (CK1a) (CK1α)	substrate protein remaining % (WEE1) (WEE1)	substrate protein remaining % (IKZF3) (IKZF3)	substrate protein remaining % (GSPT1) (GSPT1)
O=C1CCC(N2Cc3cccc(C(=O)N4CCC(N5CCN(C(c6ccccc6)c6ccccc6)CC5)CC4)c3C2=O)C(=O)N1 (stereo not drawn)	A (0% ≤ substrate protein remaining % ≤ 80%)	A (0% ≤ substrate protein remaining % ≤ 80%)	A (0% ≤ substrate protein remaining % ≤ 80%)	B (80%< substrate protein remaining %≤ 100%)	B (80%< substrate protein remaining %≤ 100%)	A (0% ≤ substrate protein remaining % ≤ 80%)
CC1(C)CCC(CN2CCN(C3CCN(C(=O)c4ccc5c(c4)C(=O)N(C4CCC(=O)NC4=O)C5=O)CC3(F)F)CC2)=C(c2ccc(Cl)cc2)C1 (stereo not drawn)	B (80%< substrate protein remaining %≤ 100%)	A (0% ≤ substrate protein remaining % ≤ 80%)	B (80%< substrate protein remaining %≤ 100%)	B (80%< substrate protein remaining %≤ 100%)	A (0% ≤ substrate protein remaining % ≤ 80%)	B (80%< substrate protein remaining %≤ 100%)
O=C1CCC(N2C(=O)c3ccc(C(=O)N4CCC(N5CCN(C(c6ccccc6)c6ccccc6)CC5)CC4)cc3C2=O)C(=O)N1 (stereo not drawn)	A (0% ≤ substrate protein remaining % ≤ 80%)	A (0% ≤ substrate protein remaining % ≤ 80%)	A (0% ≤ substrate protein remaining % ≤ 80%)	A (0% ≤ substrate protein remaining % ≤ 80%)	B (80%< substrate protein remaining %≤ 100%)	A (0% ≤ substrate protein remaining % ≤ 80%)
O=C1CCC(N2Cc3ccc(CN4CCC(N5CCN(C(c6ccccc6)c6ccccc6)CC5)CC4)cc3C2=O)C(=O)N1 (stereo not drawn)	B (80%< substrate protein remaining %≤ 100%)	A (0% ≤ substrate protein remaining % ≤ 80%)	B (80%< substrate protein remaining %≤ 100%)	B (80%< substrate protein remaining %≤ 100%)	A (0% ≤ substrate protein remaining % ≤ 80%)	A (0% ≤ substrate protein remaining % ≤ 80%)
O=C1CCC(N2C(=O)c3cccc(C(=O)N4CCC(N5CC=C(c6cccc(Cl)c6Cl)CC5)C(F)(F)C4)c3C2=O)C(=O)N1 (stereo not drawn)	B (80%< substrate protein remaining %≤ 100%)	B (80%< substrate protein remaining %≤ 100%)	B (80%< substrate protein remaining %≤ 100%)	A (0% ≤ substrate protein remaining % ≤ 80%)	B (80%< substrate protein remaining %≤ 100%)	A (0% ≤ substrate protein remaining % ≤ 80%)
O=C1CCC(N2Cc3c(CN4CCC(N5CCN(c6cccc(Cl)c6Cl)CC5)C(F)(F)C4)cccc3C2=O)C(=O)N1 (stereo not drawn)	B (80%< substrate protein remaining %≤ 100%)	B (80%< substrate protein remaining %≤ 100%)	B (80%< substrate protein remaining %≤ 100%)	B (80%< substrate protein remaining %≤ 100%)	A (0% ≤ substrate protein remaining % ≤ 80%)	A (0% ≤ substrate protein remaining % ≤ 80%)
O=C1CCC(N2Cc3ccc(CN4CCC(N5CCN(c6noc7cc(F)ccc67)CC5)C(F)(F)C4)cc3C2=O)C(=O)N1 (stereo not drawn)	B (80%< substrate protein remaining %≤ 100%)	B (80%< substrate protein remaining %≤ 100%)	B (80%< substrate protein remaining %≤ 100%)	B (80%< substrate protein remaining %≤ 100%)	B (80%< substrate protein remaining %≤ 100%)	A (0% ≤ substrate protein remaining % ≤ 80%)
CC1(C)CCC(CN2CCN(C3CCN(Cc4cccc5c4C(=O)N(C4CCC(=O)NC4=O)C5)CC3(F)F)CC2)=C(c2ccc(Cl)cc2)C1 (stereo not drawn)	B (80%< substrate protein remaining %≤ 100%)	B (80%< substrate protein remaining %≤ 100%)	A (0% ≤ substrate protein remaining % ≤ 80%)	B (80%< substrate protein remaining %≤ 100%)	B (80%< substrate protein remaining %≤ 100%)	A (0% ≤ substrate protein remaining % ≤ 80%)
O=C1CCN(N2C(=O)c3ccc(CN4CCC(N5CCN(c6cccc(Cl)c6Cl)CC5)CC4)cc3C2=O)C(=O)N1	B (80%< substrate protein remaining %≤ 100%)	B (80%< substrate protein remaining %≤ 100%)	B (80%< substrate protein remaining %≤ 100%)	A (0% ≤ substrate protein remaining % ≤ 80%)	B (80%< substrate protein remaining %≤ 100%)	A (0% ≤ substrate protein remaining % ≤ 80%)
O=C1CCC(N2C(=O)c3cccc(C(=O)N4CCC(N5CCN(c6noc7cc(F)ccc67)CC5)C(F)(F)C4)c3C2=O)C(=O)N1 (stereo not drawn)	B (80%< substrate protein remaining %≤ 100%)	A (0% ≤ substrate protein remaining % ≤ 80%)	B (80%< substrate protein remaining %≤ 100%)	B (80%< substrate protein remaining %≤ 100%)	B (80%< substrate protein remaining %≤ 100%)	B (80%< substrate protein remaining %≤ 100%)
O=C1CCC(N2C(=O)c3ccc(C(=O)N4CCC(N5CC=C(c6cccc(Cl)c6Cl)CC5)C(F)(F)C4)cc3C2=O)C(=O)N1 (stereo not drawn)	B (80%< substrate protein remaining %≤ 100%)	B (80%< substrate protein remaining %≤ 100%)	B (80%< substrate protein remaining %≤ 100%)	A (0% ≤ substrate protein remaining % ≤ 80%)	B (80%< substrate protein remaining %≤ 100%)	A (0% ≤ substrate protein remaining % ≤ 80%)
O=C1CCC(N2Cc3cc(C(=O)N4CCC(N5CCN(c6cccc(Cl)c6Cl)CC5)CC4)ccc3C2=O)C(=O)N1 (stereo not drawn)	B (80%< substrate protein remaining %≤ 100%)	B (80%< substrate protein remaining %≤ 100%)	B (80%< substrate protein remaining %≤ 100%)	B (80%< substrate protein remaining %≤ 100%)	B (80%< substrate protein remaining %≤ 100%)	A (0% ≤ substrate protein remaining % ≤ 80%)
O=C1CCC(N2Cc3ccc(CN4CCC(N5CC=C(c6cccc(Cl)c6Cl)CC5)C(F)(F)C4)cc3C2=O)C(=O)N1 (stereo not drawn)	B (80%< substrate protein remaining %≤ 100%)	B (80%< substrate protein remaining %≤ 100%)	B (80%< substrate protein remaining %≤ 100%)	B (80%< substrate protein remaining %≤ 100%)	B (80%< substrate protein remaining %≤ 100%)	A (0% ≤ substrate protein remaining % ≤ 80%)
O=C1CCC(N2Cc3c(CN4CCC(N5CCN(C(c6ccccc6)c6ccccc6)CC5)C(F)(F)C4)cccc3C2=O)C(=O)N1 (stereo not drawn)	A (0% ≤ substrate protein remaining % ≤ 80%)	B (80%< substrate protein remaining %≤ 100%)	B (80%< substrate protein remaining %≤ 100%)	A (0% ≤ substrate protein remaining % ≤ 80%)	A (0% ≤ substrate protein remaining % ≤ 80%)	A (0% ≤ substrate protein remaining % ≤ 80%)
O=C1CCN(N2Cc3cc(CN4CCC(N5CCN(C(c6ccccc6)c6ccccc6)CC5)CC4)ccc3C2=O)C(=O)N1	B (80%< substrate protein remaining %≤ 100%)	A (0% ≤ substrate protein remaining % ≤ 80%)	B (80%< substrate protein remaining %≤ 100%)	B (80%< substrate protein remaining %≤ 100%)	A (0% ≤ substrate protein remaining % ≤ 80%)	B (80%< substrate protein remaining %≤ 100%)
O=C1CCC(N2C(=O)c3ccc(C(=O)N4CCC(N5CCN(C(c6ccccc6)c6ccccn6)CC5)C(F)(F)C4)cc3C2=O)C(=O)N1 (stereo not drawn)	B (80%< substrate protein remaining %≤ 100%)	B (80%< substrate protein remaining %≤ 100%)	B (80%< substrate protein remaining %≤ 100%)	A (0% ≤ substrate protein remaining % ≤ 80%)	B (80%< substrate protein remaining %≤ 100%)	A (0% ≤ substrate protein remaining % ≤ 80%)
